Laboratory results published in US10413529B2, “Methods of inhibiting cataracts and presbyopia” (UNIVERSITY OF MASSACHUSETTS, priority 2013, dated 2019).

Tests used:
γS-crystallin = target: T1, γS-crystallin (Homo sapiens, UniProt P22914); assay: Dynamic light scattering (DLS) of γS-crystallin, hydrodynamic radius of monomer and aggregate; format: biochemical; conditions: α-crystallin additive, molar ratio 3:1, one hour at 4° C.
T1 construct: 6xHis (N); made in house; host or cells: M15pRep E. coli (pQe1 plasmid from King Labs, MIT)
T1 sequence (P22914 1-178): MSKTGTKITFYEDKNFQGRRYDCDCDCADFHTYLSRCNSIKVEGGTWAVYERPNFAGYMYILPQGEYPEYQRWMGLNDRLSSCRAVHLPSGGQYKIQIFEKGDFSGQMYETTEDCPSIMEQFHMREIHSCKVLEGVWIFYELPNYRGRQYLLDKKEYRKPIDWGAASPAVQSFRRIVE
Description: (§1) The scattering wave vector is defined as q=4πn sin (θ/2)/λ, where θ is the scattering angle, and λ=514.5, the wavelength of the argon laser in vacuum, and n is 1.33, the refractive index of water. The temperature of the sample was held at constant temperature of 4 to 37±0.1° C. by a circulating water bath. The correlation function was analyzed using CONTIN analysis [NT] times for the correlation functions at measured angles. The peaks represent the diffusive mode of the proteins. The delay times (τ) were converted to Γ and graphed versus q^2. The slope of the fitted line is the diffusion coefficient (D). […] All solutions were filtered with 0.22 μm hydrophobic PVDF membranes (Fisher Scientific) into 10 mm diameter borosilicate glass tubes and sealed. Solutions were allowed to equilibrate for thirty minutes prior to measuring light scattering. […] The pH and salt concentration were adjusted via overnight dialysis at 4° C. and their final concentration adjusted to 1.0 g/L. […] The scattering wave vector is defined as q=4πn sin (θ/2)/λ, where θ is the scattering angle, and λ=514.5, the wavelength of the argon laser in vacuum, and n is 1.33, the refractive index of water. […] The correlation function was analyzed using CONTIN analysis [NT] times for the correlation functions at measured angles. […]

γD-crystallin = target: T2, γD-crystallin (Homo sapiens, UniProt P07320); assay: Dynamic light scattering (DLS) of γD-crystallin, hydrodynamic radius of monomer and aggregate; format: biochemical; conditions: α-crystallin additive, molar ratio 3:1, one hour at 4° C.
T2 construct: 6xHis (N); made in house; host or cells: M15pRep E. coli (pQe1 plasmid from King Labs, MIT)
T2 sequence (P07320 1-174): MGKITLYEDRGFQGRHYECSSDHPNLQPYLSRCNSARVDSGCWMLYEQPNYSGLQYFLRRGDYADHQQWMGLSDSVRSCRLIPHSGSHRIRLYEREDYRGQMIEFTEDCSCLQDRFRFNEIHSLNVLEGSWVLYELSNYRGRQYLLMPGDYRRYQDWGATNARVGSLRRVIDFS
Description: as §1

B1: αA: αA-crystallin, heat shock protein and molecular chaperone, 19.9 kDa (protein, UniProt P02489 1-173, looked up)
Alpha-crystallin A chain: MDVTIQHPWFKRTLGPFYPSRLFDQFFGEGLFEYDLLPFLSSTISPYYRQSLFRTVLDSGISEVRSDRDKFVIFLDVKHFSPEDLTVKVQDDFVEIHGKHNERQDDHGYISREFHRRYRLPSNVDQSALSCSLSADGMLTFCGPKIQTGLDATHAERAIPVSREEKPTSAPSS
Rhf (γS-crystallin; fast mode): 2.8 nm | Rhs (γS-crystallin; slow mode): 18 nm | Rhf (γD-crystallin; fast mode): 2.7 nm | Rhs (γD-crystallin; slow mode): 16 nm
